Values of other authors in patent US20220071988A1, “SUSTAINED RELEASE BUPRENORPHINE MICROSPHERES (SRBM) AND METHODS OF USE THEREOF” (BioDelivery Sciences International, Inc., priority 2016, published 2022).

## Buprenorphine HCl
alcohol
  solubility in alcohol: soluble
cyclohexane
  solubility in cyclohexane: practically insoluble
methanol
  solubility in methanol: freely soluble
water
  solubility in water: sparingly soluble
